This passage reports inhibition results from PubChem BioAssay AID435006 (Sanford-Burnham Center for Chemical Genomics, 2010).

The list shows a part of the results, in another mix than the full data. Activity calls are given as the source filed them. Cut-off read from the data, not from the text of the source: active = inhibition above about 48%; inactive = the rest.

In general, inhibition refers to the relative decrease from the control value, in per cent.

A short description of the assay: yeast-expressed human NALP3 blockade – luminescence, single concentration, confirmation (AID 435006). The conditions noted are these: yeast expressing human NALP3, luminescence; at 10 µM; hits give high values.
Regarding `CC(C)(C)OC(=O)N1CCC(Nc2ccccc2)CC1`, the inhibition is inactive: 46.5%.
